Binding of CDR-mutated scFvs to a peptide of the spike HR2 region

Antigen: PDVDLGDISGINAS, a 14-residue peptide of the SARS-CoV-2 spike HR2 region.

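In library AAYL50, one, two or three CDR residues were substituted; doubles and triples were drawn at random. The assay is AlphaSeq: two haploid yeast populations carry antibody and antigen on their surface. Mating (16 h, 30 °C) was followed by selection of diploids and sequencing of their barcodes. The ratio of observed to expected reads was calibrated, replicate by replicate, on BCL2-family standards whose Kd was known from biolayer interferometry. Mating was done three times.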

Parent scFv Ab-14: VH joined to VL by a (GGGGS)3 linker. Changes lie in the light chain CDRs alone.
VH: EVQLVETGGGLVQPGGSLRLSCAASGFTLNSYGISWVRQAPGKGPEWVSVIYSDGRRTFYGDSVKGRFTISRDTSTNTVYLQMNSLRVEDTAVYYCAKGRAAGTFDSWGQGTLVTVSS
VL: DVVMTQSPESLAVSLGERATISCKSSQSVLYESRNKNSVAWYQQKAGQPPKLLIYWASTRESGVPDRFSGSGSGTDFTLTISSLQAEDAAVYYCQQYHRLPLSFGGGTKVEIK

Changes read parent residue, position, new residue, counted from the first residue of the VL shown. The read-out is the apparent dissociation constant on a log10 scale (nM): the lower, the stronger. Replicates are averaged; those with no signal do not enter the mean. "ND" means that the variant was in the library but no mating with the target was seen in that replicate; the authors take this as a sign of poor binding, and no number exists. Nonspecific signal, from three strains lacking the peptide, appeared in 18% of pairings of library AAYL50, centred on 4.19 (5% of these signals below 2.99); values are not corrected for it. Also given: how often the same scFv was detected with the empty control strains, with their mean in brackets. Parent in this assay: reference entry 0.65, copy in this library 1.68.

changes | log10 Kd, replicates | mean log10 Kd (nM) | empty controls
Q27G/N37F/R60G | ND / 4.49 / 5.74 | 5.12 | 2 of 9 (3.75)
S26D/Q95D/R99Y | 0.12 / 0.62 / 0.77 | 0.50 | 3 of 9 (2.93)
N35T/S38K/R99K | ND / ND / ND | ND | 0 of 9
R60L/S62T/Q96V | ND / 5.11 / ND | 5.11 | 2 of 9 (3.98)
K36E/A40V/R60H | ND / ND / 4.44 | 4.44 | 0 of 9
K24T/R34H/Q95K | ND / ND / ND | ND | 0 of 9
S26L/R34K/R60D | ND / ND / ND | ND | 0 of 9
K36T/Q95N/Q96H | ND / ND / ND | ND | 2 of 9 (4.63)
S28A/Y31V/S33H | 1.85 / 2.00 / 2.14 | 2.00 | 3 of 9 (4.46)
K24E | 1.41 / 1.43 / 1.43 | 1.43 | 0 of 9
S33K/Y97K/R99M | ND / ND / ND | ND | 0 of 9
S28C/K36F/S103P | ND / ND / ND | ND | 0 of 9
V29H/Y31L/T59M | -0.03 / 0.33 / 0.18 | 0.16 | 0 of 9
S38A/Q95N/L100G | 1.88 / 2.02 / 2.01 | 1.97 | 1 of 9 (4.34)
L30I/R34L/Q95I | 1.32 / 1.39 / 1.40 | 1.37 | 3 of 9 (4.43)
A57C/T59M/L102F | 3.55 / ND / ND | 3.55 | 2 of 9 (4.77)
S28V/E61Q/H98V | 3.90 / 2.66 / ND | 3.28 | 1 of 9 (3.36)
S25Q/S38P/Q95G | 2.75 / 2.35 / 2.58 | 2.56 | 1 of 9 (3.90)
S28V/Q96Y/L100P | ND / ND / 5.98 | 5.98 | 4 of 9 (4.97)
K24M/V29G/L102R | 1.22 / 1.26 / 1.36 | 1.28 | 1 of 9 (4.52)
S28Q/V29M/H98G | 0.50 / 0.80 / 0.67 | 0.66 | 0 of 9
W56R/S58C/Y97R | ND / ND / ND | ND | 1 of 9 (2.24)
N37Q/Q96D/L100R | 1.13 / 0.95 / 0.97 | 1.02 | 5 of 9 (5.02)
A57C/S62P/L102Q | 5.51 / ND / ND | 5.51 | 1 of 9 (4.27)
S25R/S26V/P101H | ND / ND / ND | ND | 1 of 9 (3.62)
E32M/S33C/W56C | ND / ND / ND | ND | 0 of 9
K36H/W56I/A57P | ND / ND / ND | ND | 0 of 9
E32V/R34C/S62A | 3.13 / 3.79 / 5.58 | 4.17 | 6 of 9 (4.37)
V29F/V39P/Q96Y | 4.44 / ND / ND | 4.44 | 1 of 9 (3.60)
K24W/T59I/H98E | 2.31 / 1.71 / 2.69 | 2.24 | 1 of 9 (3.33)
S28L/K36R/R60Q | ND / 3.55 / ND | 3.55 | 0 of 9
S25R/L100T/L102D | 3.41 / 2.42 / 4.16 | 3.33 | 1 of 9 (4.03)
V29Y/N35Y/L100N | 1.98 / 1.88 / 1.90 | 1.92 | 3 of 9 (4.19)
N35R/S38C | 3.99 / ND / 3.98 | 3.99 | 1 of 9 (4.61)
S25A/A57P/P101V | ND / 3.75 / 4.39 | 4.07 | 1 of 9 (3.59)
W56N/S58T/P101K | 3.83 / 3.84 / 3.08 | 3.58 | 1 of 9 (3.54)
W56Q/S58L/P101Q | ND / ND / ND | ND | 0 of 9
K24V/S103M | 1.07 / 1.34 / 1.31 | 1.24 | 0 of 9
S38W/E61L/Q96C | 3.29 / 3.52 / 5.63 | 4.14 | 3 of 9 (4.20)
L30I/Y31H/P101Y | ND / 3.87 / ND | 3.87 | 1 of 9 (4.58)

The closing 7 entries, repeated:

changes	log10 Kd, replicates	mean log10 Kd (nM)	empty controls
N35R/S38C	3.99 / ND / 3.98	3.99	1 of 9 (4.61)
S25A/A57P/P101V	ND / 3.75 / 4.39	4.07	1 of 9 (3.59)
W56N/S58T/P101K	3.83 / 3.84 / 3.08	3.58	1 of 9 (3.54)
W56Q/S58L/P101Q	ND / ND / ND	ND	0 of 9
K24V/S103M	1.07 / 1.34 / 1.31	1.24	0 of 9
S38W/E61L/Q96C	3.29 / 3.52 / 5.63	4.14	3 of 9 (4.20)
L30I/Y31H/P101Y	ND / 3.87 / ND	3.87	1 of 9 (4.58)

Values reported by Engelhart et al. 2022, doi:10.1038/s41597-022-01779-4 (FLAb copy).